Compound activity deposited in PubChem BioAssay by National Center for Advancing Translational Sciences (NCATS).
A selection: hits, their analogues and other compounds. The true share with any hit is near 1.3%.
KCNH2 3.1 block = inhibitors of human KCNH2 3.1 potassium channel isoform | AID 720553 | U2OS KCNH2 3.1, thallium flux FluxOr; hits give low values | activity change, % (tested at about 1.8 µM) | 0.95% of 340,000 active;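 active = maximum activity change below -70%; inconclusive = maximum activity change from -70% to -50%; inactive = maximum activity change above -50%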;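 also: thallium influx rate constant from kinetic fluorescence after stimulation buffer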
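FluxOr-based Tl+ influx in U2OS cells transduced with KCNH2 3.1 virus; rate constants normalized to DMSO controls.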
Rango release inh = inhibition of RanGTP-driven Rango-importin beta dissociation. O95149+P62826. Biochemical FRET Rango-importin beta, RanGTP-induced dissociation. Potency, µM (titrated, usually from 46.1 µM). 0.071% of 340,000 active; also: nearly all actives have a fitted effect of over 45% in size
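FRET read at 45 min, room temperature: inhibitors block the CFP/YFP signal rise when RanGTP (0.6 uM Ran, 2 mM GTP, 0.2 uM RCC1) frees Rango (0.1 uM) from importin beta (0.25 uM). Pre-read after 5 min compound exposure flags interference.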
KCNH2 WT inh = blocks the wildtype human KCNH2 potassium channel | activity change, % at 1.84 µM | U2OS, BacMam KCNH2, thallium flux FluxOr; hits give low values | 0.37% of 340,000 active | Q12809;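 active = maximum activity change below -70%; inconclusive = maximum activity change between -70% and -50%; inactive = maximum activity change above -50%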
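U2OS cells transduced with wild-type KCNH2 virus are loaded with FluxOr dye for 45 min, and thallium flux is measured in kinetic reads before and after stimulation buffer. Rate constants are normalized to DMSO controls.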
Rango complex inh = Rango-importin beta binding inhibition; Q14974; Rango CFP/YFP FRET sensor + importin beta, 45 min; Potency, µM (top dose mostly 92.2 µM); 0.031% of 340,000 active; AID 540263; also: nearly all actives have a fitted effect of over 15% in size
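FRET biosensor Rango (snurportin 1 IBB between N-terminal EYFP and C-terminal Cerulean), 50 nM in PBS/1 mM DTT/0.02% Tween-20/0.1% BSA, preincubated 5 min RT with compound; 0.125 microM importin beta added, 45 min RT, CFP/YFP FRET ratio read.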
Each line names hits and unclear results; the compound was inactive in the other large screens. Unless noted, calls follow the shape of the full dose curve.

CC(C)(C)NC(=O)Cn1c(SCC(N)=O)nc2ccccc21	KCNH2 3.1 block -89
Cc1ccc(S(=O)(=O)NCc2cccnc2)c(C)c1	KCNH2 3.1 block -71
Cc1cc(C)c(S(=O)(=O)NCc2cccnc2)cc1C	none
O=C(Cn1nc(C(=O)O)c2ccccc2c1=O)Nc1cc(S(=O)(=O)N2CCCCC2)ccc1Cl	KCNH2 3.1 block inconclusive
CC(/C=N/NC(=O)c1ccc(Cn2cc([N+](=O)[O-])cn2)o1)=C\c1ccccc1	KCNH2 3.1 block -79
CN(Cc1cccnc1)C(=O)c1ccc(Cl)c(NS(=O)(=O)c2ccc(F)cc2)c1	none
CCCCSC1=C(C#N)C(c2ccccc2C)CC(=O)N1 (centres undefined)	KCNH2 WT inh -311
CN(C(=O)c1cccc(NC(=O)Cc2ccc(NC(=O)C3CCCN(C(=O)C4CCCC4)C3)cc2)c1)C1CCCCC1 (centres undefined)	none
COc1ccc(NC(=O)NCCCN2CCC(Cc3ccccc3)CC2)cc1	KCNH2 3.1 block -104
COc1ccc(-c2cc3c(=O)n(CC(=O)NCCCN4CCC(Cc5ccccc5)CC4)ncn3n2)cc1	KCNH2 3.1 block -71, KCNH2 WT inh -111
O=C(NCCCN1CCN(c2ccc(F)cc2)CC1)NC12CC3CC(CC(C3)C1)C2	KCNH2 3.1 block -83, KCNH2 WT inh inconclusive
CSc1ccc(NC(=O)NCCCN2CCC(Cc3ccccc3)CC2)cc1	KCNH2 3.1 block -106
COc1ccc(-c2cc3c(=O)n(CC(=O)NCCCN4CCN(Cc5ccccc5)CC4)ncn3n2)cc1	none
O=C(NCCCN1CCOCC1)NC12CC3CC(CC(C3)C1)C2	none
O=C(c1ccc(-n2cncn2)c([N+](=O)[O-])c1)N1CCN(S(=O)(=O)c2ccc(Cl)cc2)CC1	none
CCOC(=O)c1cc2c(OC)c(OC)ccc2c2[nH]cc(C#N)c(=O)c12	none (no result: Rango release inh, Rango complex inh)
CN1CCN(C(=O)C[C@@H]2C[C@H]3c4cc(NC(=O)c5cccnc5)ccc4O[C@H]3[C@H](CO)O2)CC1	none (no result: Rango release inh, Rango complex inh)
COc1ccccc1CCNC(=O)C(=O)Nc1cc2c3c(c1)CC(=O)N3CCC2	none
COc1ccc(-c2noc(CCC(=O)NCCCN3CCC(Cc4ccccc4)CC3)n2)cc1	KCNH2 3.1 block -103, KCNH2 WT inh inconclusive
O=C(CCN1CCN(c2ccc(F)cc2)CC1)Nc1ccccc1F	none
COc1ccc(-c2noc(CCC(=O)NCCCN3CCN(c4ccc(F)cc4)CC3)n2)cc1	none
CSc1ccc(N2CCN(CCCNC(=O)Nc3ccccc3F)CC2)cc1	KCNH2 3.1 block -78
COc1ccc(N(CC(=O)N2CCN(c3cccc(C)c3C)CC2)S(=O)(=O)c2c(C)noc2C)cc1	Rango release inh inconclusive
CN(C)c1ccc(/C=C/C(=O)c2cccc(Br)c2)cc1	KCNH2 3.1 block -115, Rango release inh inconclusive, KCNH2 WT inh -149, Rango complex inh inconclusive
COc1ccc(C(=O)OCC(=O)N2c3ccccc3CC2C)cc1S(=O)(=O)N1CCOCC1 (centres undefined)	none (no result: Rango release inh, Rango complex inh)
CCc1ccccc1OCCCOc1ccc(OC)cc1	KCNH2 3.1 block -99
COc1ccc(-c2[nH]c(-c3cccc(OC)c3)nc2SCC(=O)NCc2ccco2)cc1	KCNH2 3.1 block -105
Oc1ccc(CCNc2ncnc3ccc(Cl)cc23)cc1	none
Cc1cc(C)c2nc(N(CCCN(C)C)C(=O)c3ccc4c(c3)OCCO4)sc2c1	KCNH2 3.1 block -86
Cc1cc(C)c2sc(N(CCCN(C)C)C(=O)c3ccc(Br)s3)nc2c1	KCNH2 3.1 block -82
C#CCOCCOCCOCCNc1nc(N2CCN(C(=O)Cn3cc(CC(C)O)nn3)CC2)nc(N2CCN(C(=O)[C@H](CCCCN)n3cc(CC(C)O)nn3)CC2)n1 (some centres undefined)	none
CN1CCn2cnc(C(=O)NCc3ccccc3)c2C1=O	none (no result: Rango release inh, Rango complex inh)
Cc1cccc(NC(=O)c2ncn3c2C(=O)N(C)CC3)c1	KCNH2 3.1 block -83 (no result: Rango release inh, Rango complex inh)
Nc1cc(=O)n(Cc2ccccc2)c(=O)n1-c1ccc(Cl)cc1	none
COc1ccc(C)c(-n2c(N)cc(=O)n(Cc3ccccc3)c2=O)c1	KCNH2 3.1 block -82
O=C([O-])c1cc(-c2ccccc2)cc(-c2ccccc2)[n+]1CCc1ccc(Cl)cc1	none (no result: KCNH2 3.1 block, KCNH2 WT inh)
O=C(N/N=C/c1c(O)ccc2ccccc12)Nc1ccccc1	Rango release inh inconclusive, Rango complex inh 65µM
CCN(C(=O)COC(=O)CSc1ccc(C(N)=O)cc1[N+](=O)[O-])C1CCCCC1	none
COc1cc(/C=C/C(=O)OCC(=O)NC2CCS(=O)(=O)C2)ccc1OC(F)F (centres undefined)	KCNH2 3.1 block -167, Rango release inh inconclusive
COc1cc(/C=C/C(=O)OCC(=O)NC2CCS(=O)(=O)C2)ccc1O (centres undefined)	none
COc1ccc(CN(CCNC(=O)CCCCC(=O)NCCN(Cc2ccc(OC)cc2)C(C)C)C(C)C)cc1	none
CC(=O)c1ccc(NC(=O)C(NC(=O)c2ccccc2)=C(C)C)cc1	none
CC(C)=C(NC(=O)c1ccccc1)C(=O)NCc1ccccc1	KCNH2 3.1 block -118
CCCCN(C(=O)c1ccc2c(c1)OCO2)C1CCS(=O)(=O)C1 (centres undefined)	KCNH2 3.1 block -76
CCCCCCOC(=O)C(C#N)c1nc2ccccc2nc1N1CCN(C)CC1 (centres undefined)	KCNH2 3.1 block -71, Rango release inh inconclusive, Rango complex inh inconclusive
C=CCOC(=O)C(C#N)c1nc2ccccc2nc1N1CCN(Cc2ccc3c(c2)OCO3)CC1 (centres undefined)	KCNH2 3.1 block -103, Rango release inh inconclusive, KCNH2 WT inh -111, Rango complex inh inconclusive
COc1ccc(CN2CCC(C(=O)c3cccc(Cl)c3)CC2)cc1	KCNH2 3.1 block -108, KCNH2 WT inh inconclusive
COc1ccc(CN2CCC(C(=O)c3ccc(Cl)cc3)CC2)cc1	KCNH2 3.1 block -97, KCNH2 WT inh -110
COc1ccc(-c2[nH]ncc2CN2CCC(C(=O)c3ccc(F)cc3)CC2)cc1	KCNH2 3.1 block -93
COc1ccc(NC(=S)N2CCC(C(=O)c3ccc(Cl)cc3)CC2)cc1	none
CCn1c(C)nc2cc(C(=O)NN=Cc3ccc([N+](=O)[O-])cc3)ccc21	none
O=[N+]([O-])c1ccc(CS(=O)(=O)c2ncn[nH]2)cc1	none
Cc1ccc(Nc2nc3ccc(Cl)cc3n3cnnc23)cc1F	KCNH2 WT inh -127
Cc1ccc2nc(Nc3ccc(F)cc3)c3nncn3c2c1	none
CCc1ccc(CN2CCC(n3nccc3NC(=O)c3cccc(F)c3)CC2)cc1	KCNH2 3.1 block -101, KCNH2 WT inh -110
O=C(Nc1ccnn1C1CCN(Cc2ccccc2)CC1)c1ccccc1Cl	KCNH2 3.1 block -90
O=C(Nc1ccnn1C1CCN(C/C=C/c2ccccc2)CC1)C1CCCC1	KCNH2 3.1 block -80
CCc1ccc(CN2CCC(n3nccc3NC(=O)c3ccccc3C)CC2)cc1	KCNH2 3.1 block -101
CCCn1ncc(CN2CCC(n3nccc3NC(=O)c3ccccc3Cl)CC2)c1C	KCNH2 3.1 block inconclusive, KCNH2 WT inh -88
COc1ccccc1C(=O)Nc1ccnn1C1CCN(C/C=C/c2ccc(F)cc2)CC1	KCNH2 3.1 block -104, KCNH2 WT inh -123
